Laboratory results from PubChem BioAssay (NCI).
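48-hour exposure; five concentrations; linearly interpolated endpoints. Here, GI50 denotes the concentration required for 50% inhibition of growth. At the TGI there is no net growth.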

What was measured:
Assay in all cases: growth of human tumour cells (NCI), 48 h
SF-539 CNS = system: SF-539 CNS
HT29 colon = system: HT29 colon
SK-MEL-5 melanoma = system: SK-MEL-5 melanoma
OVCAR-3 ovarian = system: OVCAR-3 ovarian
CAKI-1 renal = system: CAKI-1 renal
UACC-62 melanoma = system: UACC-62 melanoma
OVCAR-5 ovarian = system: OVCAR-5 ovarian
786-0 renal = system: 786-0 renal
TK-10 renal = system: TK-10 renal
MOLT-4 leukemia = system: MOLT-4 leukemia
HCT-15 colon = system: HCT-15 colon
SNB-75 CNS = system: SNB-75 CNS
MALME-3M melanoma = system: MALME-3M melanoma
CCRF-CEM leukemia = system: CCRF-CEM leukemia
SF-295 CNS = system: SF-295 CNS
HOP-92 NSCLC = system: HOP-92 NSCLC
A498 renal = system: A498 renal
HOP-62 NSCLC = system: HOP-62 NSCLC
SK-MEL-28 melanoma = system: SK-MEL-28 melanoma
UACC-257 melanoma = system: UACC-257 melanoma
UO-31 renal = system: UO-31 renal
NCI-H226 lung = system: NCI-H226 lung
KM12 colon = system: KM12 colon
HS 578T breast = system: HS 578T breast
OVCAR-4 ovarian = system: OVCAR-4 ovarian
T-47D breast = system: T-47D breast
DU-145 prostate = system: DU-145 prostate
U251 CNS = system: U251 CNS
COLO 205 colon = system: COLO 205 colon
BT-549 breast = system: BT-549 breast
MCF7 breast = system: MCF7 breast
RPMI-8226 leukemia = system: RPMI-8226 leukemia
ACHN renal = system: ACHN renal
SNB-19 CNS = system: SNB-19 CNS
SF-268 CNS = system: SF-268 CNS
SK-MEL-2 melanoma = system: SK-MEL-2 melanoma
SW-620 colon = system: SW-620 colon
IGROV1 ovarian = system: IGROV1 ovarian
NCI-H460 lung = system: NCI-H460 lung
LOX IMVI melanoma = system: LOX IMVI melanoma
EKVX NSCLC = system: EKVX NSCLC
HCT-116 colon = system: HCT-116 colon
NCI/ADR-RES ovarian = system: NCI/ADR-RES ovarian
NCI-H23 lung = system: NCI-H23 lung
A549 NSCLC = system: A549 NSCLC
MDA-MB-231 breast = system: MDA-MB-231 breast
PC-3 prostate = system: PC-3 prostate
SK-OV-3 ovarian = system: SK-OV-3 ovarian
SN12C renal = system: SN12C renal
OVCAR-8 ovarian = system: OVCAR-8 ovarian
M14 melanoma = system: M14 melanoma
HL-60(TB) leukemia = system: HL-60(TB) leukemia
RXF 393 renal = system: RXF 393 renal
MDA-MB-435 = system: MDA-MB-435
NCI-H522 lung = system: NCI-H522 lung
NCI-H322M lung = system: NCI-H322M lung
SR leukemia = system: SR leukemia
HCC-2998 colon = system: HCC-2998 colon
XF 498 CNS = system: XF 498 CNS
M19-MEL melanoma = system: M19-MEL melanoma
DMS 273 small cell lung = system: DMS 273 small cell lung
LXFL 529 NSCLC = system: LXFL 529 NSCLC
DMS 114 small cell lung = system: DMS 114 small cell lung
K-562 leukemia = system: K-562 leukemia
KM20L2 colon = system: KM20L2 colon

SMILES: O=C(Nc1cc([As](=O)(O)O)ccc1O)c1ccccc1
- GI50 (SF-539 CNS): > 100 µM
- TGI (SF-539 CNS): > 100 µM
- GI50 (HT29 colon): > 100 µM
- TGI (HT29 colon): > 100 µM
- GI50 (SK-MEL-5 melanoma): > 100 µM
- TGI (SK-MEL-5 melanoma): > 100 µM
- GI50 (OVCAR-3 ovarian): > 100 µM
- TGI (OVCAR-3 ovarian): > 100 µM
- GI50 (CAKI-1 renal): > 100 µM
- TGI (CAKI-1 renal): > 100 µM
- GI50 (UACC-62 melanoma): > 100 µM
- TGI (UACC-62 melanoma): > 100 µM
- GI50 (OVCAR-5 ovarian): > 100 µM
- TGI (OVCAR-5 ovarian): > 100 µM
- GI50 (786-0 renal): > 100 µM
- TGI (786-0 renal): > 100 µM
- GI50 (TK-10 renal): > 100 µM
- TGI (TK-10 renal): > 100 µM
- GI50 (MOLT-4 leukemia): > 100 µM
- TGI (MOLT-4 leukemia): > 100 µM
- GI50 (HCT-15 colon): > 100 µM
- TGI (HCT-15 colon): > 100 µM
- GI50 (SNB-75 CNS): > 100 µM
- TGI (SNB-75 CNS): > 100 µM
- GI50 (MALME-3M melanoma): > 100 µM
- TGI (MALME-3M melanoma): > 100 µM
- GI50 (CCRF-CEM leukemia): > 100 µM
- TGI (CCRF-CEM leukemia): > 100 µM
- GI50 (SF-295 CNS): > 100 µM
- TGI (SF-295 CNS): > 100 µM
- GI50 (HOP-92 NSCLC): > 100 µM
- TGI (HOP-92 NSCLC): > 100 µM
- GI50 (A498 renal): > 100 µM
- TGI (A498 renal): > 100 µM
- GI50 (HOP-62 NSCLC): > 100 µM
- TGI (HOP-62 NSCLC): > 100 µM
- GI50 (SK-MEL-28 melanoma): > 100 µM
- TGI (SK-MEL-28 melanoma): > 100 µM
- GI50 (UACC-257 melanoma): > 100 µM
- TGI (UACC-257 melanoma): > 100 µM
- GI50 (UO-31 renal): > 100 µM
- TGI (UO-31 renal): > 100 µM
- GI50 (NCI-H226 lung): > 100 µM
- TGI (NCI-H226 lung): > 100 µM
- GI50 (KM12 colon): > 100 µM
- TGI (KM12 colon): > 100 µM
- GI50 (HS 578T breast): > 100 µM
- TGI (HS 578T breast): > 100 µM
- GI50 (OVCAR-4 ovarian): > 100 µM
- TGI (OVCAR-4 ovarian): > 100 µM
- GI50 (T-47D breast): > 100 µM
- TGI (T-47D breast): > 100 µM
- GI50 (DU-145 prostate): > 100 µM
- TGI (DU-145 prostate): > 100 µM
- GI50 (U251 CNS): > 100 µM
- TGI (U251 CNS): > 100 µM
- GI50 (COLO 205 colon): > 100 µM
- TGI (COLO 205 colon): > 100 µM
- GI50 (BT-549 breast): > 100 µM
- TGI (BT-549 breast): > 100 µM
- GI50 (MCF7 breast): > 100 µM
- TGI (MCF7 breast): > 100 µM
- GI50 (RPMI-8226 leukemia): > 100 µM
- TGI (RPMI-8226 leukemia): > 100 µM
- GI50 (ACHN renal): > 100 µM
- TGI (ACHN renal): > 100 µM
- GI50 (SNB-19 CNS): > 100 µM
- TGI (SNB-19 CNS): > 100 µM
- GI50 (SF-268 CNS): > 100 µM
- TGI (SF-268 CNS): > 100 µM
- GI50 (SK-MEL-2 melanoma): > 100 µM
- TGI (SK-MEL-2 melanoma): > 100 µM
- GI50 (SW-620 colon): > 100 µM
- TGI (SW-620 colon): > 100 µM
- GI50 (IGROV1 ovarian): > 100 µM
- TGI (IGROV1 ovarian): > 100 µM
- GI50 (NCI-H460 lung): > 100 µM
- TGI (NCI-H460 lung): > 100 µM
- GI50 (LOX IMVI melanoma): > 100 µM
- TGI (LOX IMVI melanoma): > 100 µM
- GI50 (EKVX NSCLC): > 100 µM
- TGI (EKVX NSCLC): > 100 µM
- GI50 (HCT-116 colon): > 100 µM
- TGI (HCT-116 colon): > 100 µM
- GI50 (NCI/ADR-RES ovarian): > 100 µM
- TGI (NCI/ADR-RES ovarian): > 100 µM
- GI50 (NCI-H23 lung): > 100 µM
- TGI (NCI-H23 lung): > 100 µM
- GI50 (A549 NSCLC): > 100 µM
- TGI (A549 NSCLC): > 100 µM
- GI50 (MDA-MB-231 breast): > 100 µM
- TGI (MDA-MB-231 breast): > 100 µM
- GI50 (PC-3 prostate): > 100 µM
- TGI (PC-3 prostate): > 100 µM
- GI50 (SK-OV-3 ovarian): > 100 µM
- TGI (SK-OV-3 ovarian): > 100 µM
- GI50 (SN12C renal): > 100 µM
- TGI (SN12C renal): > 100 µM
- GI50 (OVCAR-8 ovarian): > 100 µM
- TGI (OVCAR-8 ovarian): > 100 µM
- GI50 (M14 melanoma): > 100 µM
- TGI (M14 melanoma): > 100 µM
- GI50 (HL-60(TB) leukemia): > 100 µM
- TGI (HL-60(TB) leukemia): > 100 µM
- GI50 (RXF 393 renal): > 100 µM
- TGI (RXF 393 renal): > 100 µM
- GI50 (MDA-MB-435): > 100 µM
- TGI (MDA-MB-435): > 100 µM
- GI50 (NCI-H522 lung): > 100 µM
- TGI (NCI-H522 lung): > 100 µM
- GI50 (NCI-H322M lung): > 100 µM
- TGI (NCI-H322M lung): > 100 µM
- GI50 (SR leukemia): > 100 µM
- TGI (SR leukemia): > 100 µM
- GI50 (HCC-2998 colon): > 100 µM
- TGI (HCC-2998 colon): > 100 µM

SMILES: O=P(Nc1ccccn1)(N1CC1)N1CC1
- TGI (SF-539 CNS): > 100 µM
- TGI (HT29 colon): > 100 µM
- TGI (XF 498 CNS): > 100 µM
- TGI (SK-MEL-5 melanoma): > 100 µM
- TGI (OVCAR-3 ovarian): > 100 µM
- TGI (CAKI-1 renal): > 100 µM
- TGI (UACC-62 melanoma): > 100 µM
- TGI (OVCAR-5 ovarian): > 100 µM
- TGI (786-0 renal): > 100 µM
- TGI (TK-10 renal): > 100 µM
- TGI (MOLT-4 leukemia): > 100 µM
- TGI (HCT-15 colon): > 100 µM
- TGI (SNB-75 CNS): > 100 µM
- TGI (MALME-3M melanoma): > 100 µM
- TGI (CCRF-CEM leukemia): > 100 µM
- TGI (SF-295 CNS): > 100 µM
- TGI (HOP-92 NSCLC): > 100 µM
- TGI (M19-MEL melanoma): > 100 µM
- TGI (HOP-62 NSCLC): > 100 µM
- TGI (SK-MEL-28 melanoma): > 100 µM
- TGI (UACC-257 melanoma): > 100 µM
- TGI (DMS 273 small cell lung): > 100 µM
- TGI (UO-31 renal): > 100 µM
- TGI (NCI-H226 lung): > 100 µM
- TGI (KM12 colon): > 100 µM
- TGI (OVCAR-4 ovarian): > 100 µM
- TGI (U251 CNS): > 100 µM
- TGI (COLO 205 colon): > 100 µM
- TGI (LXFL 529 NSCLC): > 100 µM
- TGI (RPMI-8226 leukemia): > 100 µM
- TGI (DMS 114 small cell lung): > 100 µM
- TGI (ACHN renal): > 100 µM
- TGI (SNB-19 CNS): > 100 µM
- TGI (SF-268 CNS): > 100 µM
- TGI (SK-MEL-2 melanoma): > 100 µM
- TGI (SW-620 colon): > 100 µM
- TGI (IGROV1 ovarian): > 100 µM
- TGI (NCI-H460 lung): > 100 µM
- TGI (K-562 leukemia): > 100 µM
- TGI (HCT-116 colon): > 100 µM
- TGI (NCI-H23 lung): > 100 µM
- TGI (A549 NSCLC): > 100 µM
- TGI (OVCAR-8 ovarian): > 100 µM
- TGI (M14 melanoma): > 100 µM
- TGI (HL-60(TB) leukemia): > 100 µM
- TGI (NCI-H522 lung): > 100 µM
- TGI (NCI-H322M lung): > 100 µM
- TGI (SR leukemia): > 100 µM
- TGI (KM20L2 colon): > 100 µM
- TGI (HCC-2998 colon): > 100 µM
